Activity data for one molecule are collected here from ChEMBL document CHEMBL5352473, “Design, synthesis, biological evaluation and crystal structure determination of dual modulators of carbonic anhydrases and estrogen receptors” (Eur J Med Chem, 2023).

Protein sequences, listed by entry. Tags and fused reporters are not part of them.
UniProt Q92731, whole entry: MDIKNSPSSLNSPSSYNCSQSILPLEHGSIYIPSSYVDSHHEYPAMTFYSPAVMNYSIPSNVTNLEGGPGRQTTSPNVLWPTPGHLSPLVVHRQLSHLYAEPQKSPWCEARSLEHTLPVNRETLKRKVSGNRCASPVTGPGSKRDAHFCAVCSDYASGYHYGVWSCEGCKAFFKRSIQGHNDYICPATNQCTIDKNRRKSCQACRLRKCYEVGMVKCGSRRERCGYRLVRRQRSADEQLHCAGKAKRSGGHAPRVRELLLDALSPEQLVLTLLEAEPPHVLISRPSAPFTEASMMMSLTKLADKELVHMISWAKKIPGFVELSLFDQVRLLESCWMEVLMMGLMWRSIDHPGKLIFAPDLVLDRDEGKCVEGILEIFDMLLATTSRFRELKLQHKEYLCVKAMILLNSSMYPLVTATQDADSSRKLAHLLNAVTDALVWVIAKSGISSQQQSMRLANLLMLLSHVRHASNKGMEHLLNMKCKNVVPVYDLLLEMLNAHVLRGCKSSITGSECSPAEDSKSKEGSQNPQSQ

In the experiment the target is Estrogen receptor beta (Homo sapiens) (UniProt Q92731). Briefly: Partial agonist activity at wild type human ERbeta in HEK-293T cells transfected with 3xERE-driven luciferase reporter plasmid by luciferase reporter gene assay. It is filed as cell-based. As to conditions: filed as partial agonist. (In general: In a reporter assay the amount or activity of a reporter protein is the signal.)

Regarding `NS(=O)(=O)c1ccc2c(c1)C1C=CCC1C(c1ccc(O)cc1Cl)N2` (racemic), the Activity was 0.15 mM.
